# From PubChem BioAssay AID1654 (Sanford-Burnham Center for Chemical Genomics, 2009)
# Amino acid sequences for entries named in this document (tags omitted). A change or cut given only in a name is not applied to a line headed by its entry.
# UniProt P51452: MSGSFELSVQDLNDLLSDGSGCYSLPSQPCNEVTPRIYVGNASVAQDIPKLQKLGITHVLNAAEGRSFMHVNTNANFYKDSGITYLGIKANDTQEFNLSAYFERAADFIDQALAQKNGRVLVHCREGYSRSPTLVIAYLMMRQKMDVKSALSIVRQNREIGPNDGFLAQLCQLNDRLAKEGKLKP
# Values joined by “and” are separate entries in the source; they are usually repeats but may differ in a detail not shown here. Identical values can stand only once. The entries are a selection whose mix differs from that of the whole data set. Active and inactive are the calls of the source. No stated cut-off is given here; in the data, active means inhibition above about 50%; inactive means the rest.
# Target: Dual specificity protein phosphatase 3 (Homo sapiens) (UniProt P51452)
# Test: inhibition of human DUSP3 activity – biochemical, absorbance, uHTS, primary screen (AID 1654)
# Details: recombinant VHR phosphatase, pNPP absorbance; at 13.3 µM; active compounds read high
row,Compound,inhibition
1,Cc1ccc(NP(=O)(Oc2ccccc2F)Oc2ccccc2F)nc1,inactive: 31%
2,CCOP(=O)(Nc1ccccc1)OCC,inactive: 31.8% and inactive: 7.7%
3,Cc1cc(SC(NC(=O)c2ccc(F)cc2)C(Cl)(Cl)Cl)ncn1 (configuration not stated),inactive: 17.6%
4,Nc1cccc2ccc([As](=O)(O)O)cc12,inactive: 13.1%
5,CCN(N=Nc1nonc1N)c1nonc1N,inactive: 16.9%
6,C[As](=O)(O)c1cccc(C(=O)O)c1,inactive: 26.9%
7,O=[As](O)(c1ccc(O)cc1)c1ccccc1O,inactive: 23.9%
8,Cc1ccc(OP(=O)(Nc2ccc([N+](=O)[O-])cn2)Oc2ccc(C)cc2)cc1,inactive: 31.5%
9,Cc1ccc2nc3c(c(C)c2c1)CC(C(Cl)Cl)S3 (configuration not stated),inactive: 8.3%
10,ClCCSc1nnc(-c2cccnc2)o1,inactive: -13.2%
11,CC(C)c1ccc(OP(=O)(Nc2ccccn2)Oc2ccccc2F)cc1 (configuration not stated),inactive: 32.9%
12,O=[N+]([O-])c1cc([N+](=O)[O-])c(-c2ccn[nH]2)s1,inactive: -8.4%
13,CCN(CC)C(=S)SC(NC=O)C(Cl)(Cl)Cl (configuration not stated),inactive: 23.5%
14,CC(C)NC(=O)NP(=O)(Oc1ccccc1)Oc1ccccc1,inactive: 12.9%
15,Cc1c2c(nc3ccccc13)SC(C(Cl)Cl)C2 (configuration not stated),inactive: -3.9%
16,Cc1cc(=O)[nH]c(N[N+](=O)[O-])n1,inactive: -7%
17,O=C(OC1CN2CCC1CC2)C12CC3CC(CC(C3)C1)C2 (configuration not stated),inactive: 11.3%
18,COc1cc(I)ccc1[As](=O)(O)O,inactive: 4.9%
19,COc1ccc(N/C(=N/P(=O)(N2CCOCC2)N2CCOCC2)N2CCOCC2)cc1,inactive: 16%
20,COP1(=S)c2c(C)nn(CCC#N)c2N=C(c2ccc(F)cc2)N1C (configuration not stated),inactive: 20.7%
21,O=C(Nc1ccncc1[N+](=O)[O-])c1ccc([N+](=O)[O-])cc1[N+](=O)[O-],inactive: 13%
22,O=C(COc1ccccc1)OC1CN2CCC1CC2 (configuration not stated),inactive: 3.6%
23,O=C(OC1CN2CCC1CC2)c1cccc([N+](=O)[O-])c1 (configuration not stated),inactive: 12.5%
24,CCOC(=O)c1ccc(NC(=O)C(C)(CCl)SC)cc1 (configuration not stated),inactive: 36.8%

row,Compound,inhibition
1,CCC(C)N(CC(C)C)C(=S)SC(NC(C)=O)C(Cl)(Cl)Cl (configuration not stated),inactive: 8.9%
2,CCOC(=O)Nc1ccc([As](=O)(O)O)c(O)c1,inactive: 4.9%
3,Cc1cc(SC(NC(=O)c2ccccc2)C(Cl)(Cl)Cl)nc(C(C)C)n1 (configuration not stated),active: 55.4%
4,CCCCOc1ccc(C(=O)NCC2(N3CCCCC3)CCCCC2)cc1OC,inactive: 16%
5,CCOC(=O)Nc1cccc([As](=O)(O)O)c1,inactive: 41.5%
6,O=P(Nc1ccccn1)(c1cccc2ccccc12)c1cccc2ccccc12,inactive: 26.4%
7,Cc1cc(SC(NC=O)C(Cl)(Cl)Cl)ncn1 (configuration not stated),inactive: -0.2%
8,O=[N+]([O-])c1ccc(Nc2ccc(Oc3ccc([N+](=O)[O-])cc3[N+](=O)[O-])cc2)c([N+](=O)[O-])c1,inactive: 24.4%
9,CC1CCC(C(C)C)C(OP(=O)(Nc2ccccn2)c2ccccc2)C1 (configuration not stated),inactive: 14.4%
10,Cc1ccc(C(=O)OC2CN3CCC2CC3)cc1 (configuration not stated),inactive: -17.8%
11,Cc1nn(-c2ccccc2)c2c1P(=O)(N1CCOCC1)N(C)C(c1ccccc1)=N2 (configuration not stated),inactive: 9.4%
12,CN(C)C1(CNC(=O)c2ccc(S(C)(=O)=O)cc2)CCCCC1,inactive: 12.9%
13,O=C(/C=C/c1ccccc1)OC1CN2CCC1CC2 (configuration not stated),inactive: 6.1%
14,O=P1(Nc2ncccn2)COc2ccccc2OC1,inactive: 25.5%
15,Nc1cccc([As](=O)(O)c2ccccc2)c1,inactive: 8.7%
16,O=P1(Nc2ccc(Br)cn2)COc2ccccc2OC1,inactive: -0.8%
17,O=[As](O)(c1cccs1)c1cccs1,inactive: -3.9%
18,Cc1ccc(OCC(=O)OC2CN3CCC2CC3)cc1 (configuration not stated),inactive: -9%
19,CCOP(=O)(NC(=NC(C)c1ccccc1)NC(C)c1ccccc1)OCC (configuration not stated),inactive: 18.1%
20,O=P1(Nc2ccccn2)COc2ccccc2OC1,inactive: 2.9%
21,CCC1=CC2Cc3nc4ccc(Cl)cc4c(N)c3C(C1)C2 (configuration not stated),inactive: 8.1%
22,CCOP(=O)(Nc1ccc(C)cn1)OCC,inactive: 27.1%
23,CC(C)(C)C(=O)NC(Sc1ncccn1)C(Cl)(Cl)Cl (configuration not stated),inactive: 13.3%
24,Clc1n[nH]nc1-c1nn[nH][15n]1,inactive: 29.1%

row,Compound,inhibition
1,CC(C)/C=N\N=C(\N)N[N+](=O)[O-],inactive: 15.2%
2,CN(C(=O)Cc1ccc(Cl)c(Cl)c1)[C@@H]1CCCC[C@H]1N1CCCC1,inactive: 30.1%
3,O=[As](O)(c1ccccc1Br)c1ccccc1Br,inactive: 5.9%
4,O=C(OC1CN2CCC1CC2)c1ccc(Cl)cc1 (configuration not stated),inactive: -10.7%
5,CS(=O)(=O)c1ccc(Cl)c(NC(=O)COC(=O)C(O)(c2ccccc2)c2ccccc2)c1,inactive: 18.8%
6,COc1cc(C(=O)NCC2(N3CCOCC3)CCCCC2)cc(Cl)c1OC(C)C,inactive: 6%
7,O=[As](O)(O)c1cccnc1,inactive: 12.5%
8,O=[As](O)(c1cccc(O)c1)c1cccc(O)c1,inactive: 5.1%
9,Cc1cccc(OCC(=O)OC2CN3CCC2CC3)c1 (configuration not stated),inactive: -9.6%
10,Nc1cccc2c([As](=O)(O)O)cccc12,inactive: 78.4%
11,Cc1ccc(NCCc2c([N+](=O)[O-])cc([N+](=O)[O-])cc2[N+](=O)[O-])cc1,inactive: 20.8%
12,CCCOP(=S)(Nc1nc(N)cc(=O)[nH]1)OCCC,inactive: 11.2%
13,CCOP(=O)(Nc1cccc2ccccc12)OCC,inactive: -11.3%
14,COc1cc(C2NCCC3(OCCO3)C2(C)C)cc(OC)c1OC (configuration not stated),inactive: -9.9%
15,O=P(Nc1nccs1)(c1ccccc1)c1nc2ccccc2s1 (configuration not stated),inactive: 8.3%
16,O=P(Nc1nccs1)(Oc1ccccc1)Oc1ccccc1,inactive: 12%
17,CCOP1(=S)c2c(C)nn(CCC#N)c2N=C(c2ccccc2F)N1C (configuration not stated),inactive: 16.9%
18,CS(=O)(=O)c1cc([N+](=O)[O-])c2no[n+]([O-])c2c1,inactive: 1.2%
19,Nc1ccccc1[As](=O)(O)c1ccccc1,inactive: 12.5%
20,O=C(O)COc1ccc([As](=O)(O)O)cc1[N+](=O)[O-],inactive: 13.1%
21,NC(=O)Nc1ccc([As](=O)(O)O)cc1,inactive: 14.9%
22,CCOP1(=S)c2c(C)nn(CCC#N)c2N=C(c2ccc(F)cc2)N1C (configuration not stated),inactive: 7.2%
23,CN(C(=O)Cc1ccccc1)[C@@H]1CC[C@]2(CCCO2)C[C@H]1N1CCCC1,inactive: -8.9%
24,O=[N+]([O-])c1ccc2c(c1)nnn2O,inactive: 35.1%
